Yeast mating assay B: variants of the scFv Ab-14

All variants were tested on one target, the spike HR2 peptide PDVDLGDISGINAS (SARS-CoV-2).

Parent scFv Ab-14: VH joined to VL by three GGGGS repeats. Changes lie in the heavy chain CDRs alone.
VH: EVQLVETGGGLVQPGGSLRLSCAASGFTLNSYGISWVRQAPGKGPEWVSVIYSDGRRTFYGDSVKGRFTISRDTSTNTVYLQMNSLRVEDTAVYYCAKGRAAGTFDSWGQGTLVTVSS
VL: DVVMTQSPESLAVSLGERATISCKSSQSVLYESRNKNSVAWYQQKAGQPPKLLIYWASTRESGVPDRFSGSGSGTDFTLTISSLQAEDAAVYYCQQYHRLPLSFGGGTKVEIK

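The parent was found by panning a naive human phage display library on the peptide. The variants were designed computationally from a first round of random CDR variants and then made and measured. Their group label is 14H_GP_Gen (GP: Gaussian process model; Gen: genetic algorithm; a sequence that several methods proposed may carry one label only). Affinity was read by AlphaSeq, a pooled yeast mating assay with surface-displayed partners. Mating (16 h, 30 °C) was followed by selection of diploids and sequencing of their barcodes. Read counts were normalised to the haploid input and turned into Kd by a linear fit to BCL2-family pairs of known affinity, for each replicate. Each pool was mated in six replicate cultures.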

Substitutions are numbered in sequence along the VH above, starting at 1 (not Kabat). Scale: log10 of Kd in nM, estimated from mating counts; low values are strong binders. "n.d." marks a missing value. The strain was present, yet no cells mated with the target were sequenced in that replicate, which points to weak or no binding.

changes,"replicates, log10 nM",control signals
T28N/A101M/S107T,1.19 1.78 0.07 1.29 0.50 1.32,0/18
T28D/G61Q/S63K/R100K,n.d. n.d. n.d. 0.93 n.d. n.d.,0/18
T28D/R100K/A101T/S107Y,0.21 0.30 0.20 0.55 0.28 0.35,0/18
T28E/S53A/G61H/R100K,n.d. n.d. n.d. n.d. n.d. n.d.,0/18
G26K/T28E/R100Q/A101T,n.d. n.d. n.d. 3.31 1.80 n.d.,0/18
T28E/S31E/G61H/A101Q,0.83 0.94 0.33 0.89 0.11 0.01,0/18
T28Q/S31E/R100K/S107K,0.84 0.63 0.14 -0.14 0.72 0.23,0/18
G61S/R100S/A101E,-0.18 -0.16 -0.39 -0.20 0.40 -0.29,0/18
T28E/G61S/R100Q/A101E,-0.18 -0.23 -0.32 -0.39 -0.29 -0.13,0/18
T28S/S31E/D62W,0.54 0.05 -0.38 -0.87 -0.66 0.50,1/18 (1.04)
T28D/G61H/R100K/A101N,0.62 0.57 0.08 0.28 0.38 0.42,1/18 (3.52)
T28S/S53A/S63Q/R100E,-0.28 -0.33 -0.49 -0.13 -0.48 0.10,0/18
T28D/G61D/R100H,0.17 0.29 -0.19 -0.60 -0.48 -0.24,0/18
T28Q/S31E/A101T/S107E,1.12 0.11 0.07 0.60 -0.50 1.09,0/18
G26E/T28D/A101T,1.33 0.03 0.86 0.21 0.29 0.37,1/18 (1.37)
T28E/S31A/G61A/A101T,0.36 0.64 -0.44 -0.12 1.48 0.19,0/18
T28G/G61A/A101N,0.19 0.13 0.13 0.51 -0.05 0.17,0/18
T28N/S63M/A101T,n.d. n.d. n.d. 1.34 n.d. 0.89,0/18
T28D/G61V/A101N/S107T,0.02 0.10 0.17 0.04 -0.15 0.32,0/18
T28S/S63Q/R100N/A101T,-0.32 -0.54 -0.18 0.48 -0.27 0.10,0/18
T28S/S31E/R56M/A101T,0.05 -0.27 -0.21 -0.22 -0.32 -0.19,0/18
T28E/S31N/G61S/R100Q,0.72 0.46 1.20 0.60 0.77 0.69,0/18
T28D/F59A/G61S,0.08 -0.12 -0.38 0.61 -0.15 -0.08,0/18
T28D/G61V/R100K/A101N,1.57 1.55 1.36 2.05 1.27 2.33,0/18
T28S/S31M/G61H/A101T,n.d. n.d. n.d. n.d. 1.50 n.d.,0/18
T28N/R100M/A101E,0.30 0.01 0.19 -0.29 0.51 0.64,0/18
T28D/S63M/R100K/A101T,2.16 n.d. 0.76 0.48 0.38 n.d.,0/18
T28S/S53A/S63N,0.16 0.49 -0.15 0.35 0.20 0.26,1/18 (1.71)
T28N/G61Q/S63K/A101Q,1.42 1.13 1.33 1.48 0.68 1.60,0/18
N30E/S53A/R100Q/S107T,0.27 0.67 0.29 0.17 0.36 0.24,0/18

Picked from the list: the 2 lowest averages where every replicate gave a value.

changes	replicates, log10 nM	control signals
T28S/S53A/S63Q/R100E	-0.28 -0.33 -0.49 -0.13 -0.48 0.10	0/18
T28E/G61S/R100Q/A101E	-0.18 -0.23 -0.32 -0.39 -0.29 -0.13	0/18

Three control strains display no target. For all heavy chain designs, 1% of the pairings with them gave a signal, with a median of 2.08 and one signal in twenty below 0.84, so weak values seen in few replicates may be background. The control count says in how many pairings with the empty strains this scFv gave a signal, with their mean in brackets. A sequence measured in both rounds can read differently, since the two assays cover different ranges. The authors' rule: three or more of the six replicates give a measured affinity, fewer mean a poor binder.

The measurements come from Li et al. 2023 (doi:10.1038/s41467-023-39022-2) through the FLAb antibody collection.